System: NADH
Assay: purified protein, by the assay type
Conditions: pH 8.0; 30.0 °C

NOX (NADH oxidase) (Gluconobacter thailandicus NBRC 3257)
Km: 29 µM

Source: patent publication US7575910B2, “Method for producing L-fuculose and method for producing L-fucose” (priority 2004, dated 2009)
